scFv variants of Ab-14 (heavy chain) against a SARS-CoV-2 spike peptide

The measurements come from Engelhart et al. 2022 (doi:10.1038/s41597-022-01779-4) through the FLAb antibody collection.

Antigen: PDVDLGDISGINAS, a 14-residue peptide of the SARS-CoV-2 spike HR2 region.

Each scFv is VH, a 15-residue (Gly4Ser)3 linker, VL, as in the parent Ab-14, and differs from it in the CDRs of the heavy chain only.
VH: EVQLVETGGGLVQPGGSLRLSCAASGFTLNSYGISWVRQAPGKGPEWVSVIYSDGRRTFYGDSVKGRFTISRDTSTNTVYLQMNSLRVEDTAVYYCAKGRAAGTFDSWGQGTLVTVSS
VL: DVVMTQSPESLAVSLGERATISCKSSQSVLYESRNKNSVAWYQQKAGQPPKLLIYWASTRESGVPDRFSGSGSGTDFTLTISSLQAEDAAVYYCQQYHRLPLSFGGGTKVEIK

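AAYL49 was designed without a model: most single CDR substitutions and a random sample of double and triple ones. AlphaSeq pools MATa yeast showing the antibodies with MATalpha yeast showing the peptide. The frequency of each diploid, read from paired DNA barcodes, reflects how well the two displayed proteins bind. The ratio of observed to expected reads was calibrated, replicate by replicate, on BCL2-family standards whose Kd was known from biolayer interferometry. There are three technical replicates.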

Substitutions are numbered in sequence along the VH above, starting at 1 (not Kabat). Values are apparent Kd, the geometric mean of the replicates that gave a signal; lower means stronger binding. An entry "no signal" has no value in the source: the pair was not observed among the diploids in any replicate. This suggests poor binding but is not conclusive. The list is sorted by this average, lowest first, undetected variants last. For reference, the parent read 4.4 nM as the reference entry and 13 µM (one replicate of three) as a member of this library.

For F59A D62T K65Q, the assay gave 4.7 nM (3 of 3 replicates).
For I34W F59V, the assay gave 5.2 nM (3 of 3 replicates).
For Y32E S53V G61H, the assay gave 160 nM (3 of 3 replicates).
For Y52T T58V G103F, the assay gave 160 nM (1 of 3 replicates).
For N30V G61I K65E, the assay gave 700 nM (3 of 3 replicates).
For S31E Y32T G61E, the assay gave 1.7 µM (1 of 3 replicates).
For Y32A I34H Y52S, the assay gave 2.2 µM (1 of 3 replicates).
For R56D D106P, the assay gave 3.3 µM (3 of 3 replicates).
For F27G S35L G103F, the assay gave 4.1 µM (1 of 3 replicates).
For R57S A101D D106Q, the assay gave 4.8 µM (2 of 3 replicates).
For S31H K65C D106N, the assay gave 8.7 µM (3 of 3 replicates).
For G55F V64C S107K, the assay gave 13 µM (2 of 3 replicates).
For G33H Y52F S107A, the assay gave 15 µM (1 of 3 replicates).
For Y32S V64H D106M, the assay gave 16 µM (3 of 3 replicates).
For V50H R57I G103R, the assay gave 18 µM (1 of 3 replicates).
For I34R V50I, the assay gave 18 µM (1 of 3 replicates).
For S31V Y32G V64T, the assay gave 19 µM (2 of 3 replicates).
For F27I T58I Y60I, the assay gave 25 µM (2 of 3 replicates).
For F27E I51T Y60V, the assay gave 26 µM (2 of 3 replicates).
For N30L I34T R56D, the assay gave 27 µM (1 of 3 replicates).
For G26C N30V S107I, the assay gave 36 µM (2 of 3 replicates).
For G33W I34E F105S, the assay gave 45 µM (3 of 3 replicates).
For G26C R56C F59K, the assay gave 51 µM (1 of 3 replicates).
For S31Y S53C A101P, the assay gave 110 µM (1 of 3 replicates).
For T28W Y52I, the assay gave 130 µM (2 of 3 replicates).
For I51W G55T G61A, the assay gave no signal (0 of 3 replicates).
For V50A R100Q F105I, the assay gave no signal (0 of 3 replicates).
For S31I I34D Y60L, the assay gave no signal (0 of 3 replicates).
For I51W R57T F59A, the assay gave no signal (0 of 3 replicates).
For S35F G61W A101G, the assay gave no signal (0 of 3 replicates).
For I51A S53I G103Q, the assay gave no signal (0 of 3 replicates).
For S31N G55Q S107R, the assay gave no signal (0 of 3 replicates).
For G26N Y52G V64G, the assay gave no signal (0 of 3 replicates).
For G26S D54E K65W, the assay gave no signal (0 of 3 replicates).
For L29H G33V D106L, the assay gave no signal (0 of 3 replicates).
For F27A V50C I51G, the assay gave no signal (0 of 3 replicates).
For G33V K65R D106L, the assay gave no signal (0 of 3 replicates).
For R57I G99M F105S, the assay gave no signal (0 of 3 replicates).
For I34L K65R F105K, the assay gave no signal (0 of 3 replicates).
For A102M G103W T104S, the assay gave no signal (0 of 3 replicates).
For D62Y T104K, the assay gave no signal (0 of 3 replicates).
For Y32P S63G R100T, the assay gave no signal (0 of 3 replicates).
For T28S D62P F105A, the assay gave no signal (0 of 3 replicates).
For D54H R57S, the assay gave no signal (0 of 3 replicates).
For L29R V64Y G103C, the assay gave no signal (0 of 3 replicates).
For G33H Y52R G55R, the assay gave no signal (0 of 3 replicates).
For I34G A102L S107H, the assay gave no signal (0 of 3 replicates).
For I51D F59N S107R, the assay gave no signal (0 of 3 replicates).
For I34A V50W A101V, the assay gave no signal (0 of 3 replicates).
For Y52A G61F R100Y, the assay gave no signal (0 of 3 replicates).

The last 8 entries again:

{"changes": "T28S D62P F105A", "Kd (apparent)": "no signal", "replicates with signal": "0/3"}
{"changes": "D54H R57S", "Kd (apparent)": "no signal", "replicates with signal": "0/3"}
{"changes": "L29R V64Y G103C", "Kd (apparent)": "no signal", "replicates with signal": "0/3"}
{"changes": "G33H Y52R G55R", "Kd (apparent)": "no signal", "replicates with signal": "0/3"}
{"changes": "I34G A102L S107H", "Kd (apparent)": "no signal", "replicates with signal": "0/3"}
{"changes": "I51D F59N S107R", "Kd (apparent)": "no signal", "replicates with signal": "0/3"}
{"changes": "I34A V50W A101V", "Kd (apparent)": "no signal", "replicates with signal": "0/3"}
{"changes": "Y52A G61F R100Y", "Kd (apparent)": "no signal", "replicates with signal": "0/3"}

Three control strains display no target. For library AAYL49, 15% of the pairings with them gave a signal, with a median of 11 µM and one signal in twenty below 680 nM, so weak values seen in few replicates may be background.